The subject of this data set is C57BL/6 mice. Nature of the data set: Veno-occlusive disease (VOD/SOS) blinded histological score in C57BL/6 mice. Conditions: for SOS (VOD): C57BL/6 mice gavaged daily for 14 days, 6-TG 2.5, 6-MP ≦5, methyl-6-MP ≦5, methyl-6-TG ≦2.5 mg/kg body weight/day.

Regarding `Sc1ncnc2nc[nH]c12` [Formulation 6-MP, 3,7-dihydropurine-6-thione], the “SOS (VOD)” value is given as “not 6-MP or their methylated bases causes SOS”.
Regarding `Nc1nc2nc[nH]c2c(=S)[nH]1` [Formulation 6-TG, 2-amino-6,7-dihydro-3H-purine-6-thione], the “SOS (VOD)” value is on record as “SOS (VOD) was only observed in the mice treated with 6-TG”. Moreover, the VOD score result (C57BL/6 mice, 1 mg/kg body weight by gavage each day for 14 days) is “led to a VOD effect”. The VOD score result (C57BL/6 mice, 2.5 mg/kg body weight by gavage each day for 14 days) is given as “led to a VOD effect”. In addition, under “divided dose 1.25 mg/kg twice daily oral gavage, 11 days, compared with single bolus 2.5 mg/kg”, the VOD score result is “significantly less VOD score”.
